pEC50: −log10 of the molar value.
Key:
[1] = system: HEK293T/Gα16gust44 cells; test: Fluo-4 calcium assay, negative control cells expressing Gα16gust44 only (mock transfected); type: cell-based, human; conditions: for G16gust44 (NEG. CONTROL) AVG: p-ETBZ 100 micromolar, NDHC 1 mM, NarDHC 1 mM, cyclamate 5 mM, three replicates
[2] = target: T1, transmembrane domains of TAS1R (Homo sapiens, UniProt Q7RTX0+Q8TE23, C757R); test: Identification of candidate sweetness enhancers that bind to the transmembrane domains; type: binding; conditions: identified by the applicants as candidate sweetness enhancers
T1 sequence (Q8TE23 20-839): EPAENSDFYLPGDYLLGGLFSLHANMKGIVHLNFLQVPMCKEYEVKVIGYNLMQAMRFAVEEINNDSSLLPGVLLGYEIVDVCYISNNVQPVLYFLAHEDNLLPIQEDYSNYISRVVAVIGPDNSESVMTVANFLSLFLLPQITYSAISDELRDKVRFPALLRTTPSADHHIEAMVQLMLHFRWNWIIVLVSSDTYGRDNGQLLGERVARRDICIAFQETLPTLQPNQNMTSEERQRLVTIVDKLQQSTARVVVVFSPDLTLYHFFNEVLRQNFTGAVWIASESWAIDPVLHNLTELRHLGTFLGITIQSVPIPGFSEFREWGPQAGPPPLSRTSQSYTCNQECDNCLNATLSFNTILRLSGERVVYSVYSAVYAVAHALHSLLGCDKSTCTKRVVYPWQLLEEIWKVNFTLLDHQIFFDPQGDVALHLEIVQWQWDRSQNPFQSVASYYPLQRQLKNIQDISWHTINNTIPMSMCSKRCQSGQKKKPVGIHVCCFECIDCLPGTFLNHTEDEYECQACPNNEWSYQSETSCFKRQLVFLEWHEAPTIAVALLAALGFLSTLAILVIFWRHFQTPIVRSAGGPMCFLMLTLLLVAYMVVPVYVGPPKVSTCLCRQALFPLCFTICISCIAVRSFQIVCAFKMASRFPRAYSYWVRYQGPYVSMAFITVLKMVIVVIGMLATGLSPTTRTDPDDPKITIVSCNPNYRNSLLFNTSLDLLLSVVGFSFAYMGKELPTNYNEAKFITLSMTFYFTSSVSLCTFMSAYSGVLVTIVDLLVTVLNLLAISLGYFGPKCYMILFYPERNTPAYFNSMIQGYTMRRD
T1 sequence (Q7RTX0 21-852 C757R): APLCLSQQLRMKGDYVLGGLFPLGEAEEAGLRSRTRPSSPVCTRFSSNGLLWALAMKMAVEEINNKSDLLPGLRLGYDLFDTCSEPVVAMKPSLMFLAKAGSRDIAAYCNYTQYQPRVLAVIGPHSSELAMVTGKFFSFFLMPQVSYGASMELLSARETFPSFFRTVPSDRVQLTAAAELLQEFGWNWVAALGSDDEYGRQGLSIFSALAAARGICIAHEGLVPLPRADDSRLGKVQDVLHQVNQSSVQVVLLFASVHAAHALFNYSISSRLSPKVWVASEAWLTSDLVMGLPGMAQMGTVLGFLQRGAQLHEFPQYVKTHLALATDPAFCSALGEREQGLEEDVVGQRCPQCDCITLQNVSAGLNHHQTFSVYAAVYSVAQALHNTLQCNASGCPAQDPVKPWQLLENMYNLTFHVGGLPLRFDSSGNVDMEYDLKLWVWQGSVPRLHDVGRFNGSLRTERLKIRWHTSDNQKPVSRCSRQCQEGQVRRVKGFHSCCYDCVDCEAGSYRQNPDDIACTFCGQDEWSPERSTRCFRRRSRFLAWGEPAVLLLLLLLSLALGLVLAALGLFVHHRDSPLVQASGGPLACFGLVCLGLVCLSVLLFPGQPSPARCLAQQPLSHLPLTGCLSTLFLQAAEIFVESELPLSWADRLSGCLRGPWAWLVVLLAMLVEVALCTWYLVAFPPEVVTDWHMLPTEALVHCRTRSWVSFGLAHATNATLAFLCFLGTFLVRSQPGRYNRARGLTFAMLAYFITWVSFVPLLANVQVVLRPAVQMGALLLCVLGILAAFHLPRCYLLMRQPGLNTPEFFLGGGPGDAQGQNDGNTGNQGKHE

[3] = system: sweet sensitive panelists; test: Ranking test of sweetness isointensity (R-index), sensory panel
[4] = target: T2, T1R2-TMD (Homo sapiens, UniProt Q8TE23); test: cell-based
T2 sequence (Q8TE23 564-839): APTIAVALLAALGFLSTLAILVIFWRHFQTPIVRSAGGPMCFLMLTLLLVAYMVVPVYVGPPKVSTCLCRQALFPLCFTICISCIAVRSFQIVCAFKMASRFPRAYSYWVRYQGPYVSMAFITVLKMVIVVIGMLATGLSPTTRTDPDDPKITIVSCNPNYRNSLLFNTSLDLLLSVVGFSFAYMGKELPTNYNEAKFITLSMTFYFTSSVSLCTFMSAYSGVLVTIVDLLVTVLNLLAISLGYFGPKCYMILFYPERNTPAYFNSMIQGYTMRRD

[5] = 2 ppm NDHC in water vs 1% sucrose

COc1ccc(CCC(=O)c2c(O)cc(O[C@@H]3O[C@H](CO)[C@@H](O)[C@H](O)[C@H]3O[C@@H]3O[C@@H](C)[C@H](O)[C@@H](O)[C@H]3O)cc2O)cc1O [NDHC, neohesperidin dihydrochalcone]
Neg. control (mock transfection) AVG ([1]; calcium chloride 2 mM, sucralose 0.5 mM, aspartame 0.85 mM, perillartine 50 μM, cinnamonitrile 100 μM, cyclamate 1 mM, NDHC 0.33 mM, six replicates): −524 RFU
G16gust44 (NEG. CONTROL) AVG [1]: 0.2304 dF/F
binding to the transmembrane domains of TAS1R [2]: bind to the transmembrane domains of TAS1R
sweetness isointensity to sucrose ([3]; 2 ppm NDHC in water): 0.5 % sucrose
NDHC sample sweetness ([3]; 2 ppm NDHC in water vs 0.5% sucrose): isosweet
NDHC sample sweetness [3, 5]: less sweet
R-index [3, 5]: 5%

CCOc1ccc(C=O)cc1 [p-ethoxybenzaldehyde]
AVERAGE fluorescence increase, Gα16gust44 ONLY (neg. control) ([1]; 100 μM p-ethoxybenzaldehyde, six replicates): 46.835 RFU
G16gust44 (NEG. CONTROL) AVG [1]: 0.1592 dF/F
pEC50 [4]: 3.91
R-index ([3]; 0.5% sucrose sample ranked against 100 ppm p-ethoxybenzaldehyde in water, nose clips): 63%
R-index ([3]; 0.5% sucrose sample ranked against 150 ppm p-ethoxybenzaldehyde in water, nose clips): 3%
R-index ([3]; 75 ppm in water vs 0.5% sucrose, nose clips): 7%
R-index ([3]; 75 ppm in water vs 1% sucrose, nose clips): 0%
R-index ([3]; 75 ppm p-ethoxybenzaldehyde in 7% sucrose vs 7% sucrose): 74%
R-index ([3]; 75 ppm p-ethoxybenzaldehyde in 7% sucrose vs 8% sucrose): 36%
R-index ([3]; 75 ppm p-ethoxybenzaldehyde in 7% sucrose vs 9% sucrose): 12%
R-index ([3]; 75 ppm p-ethoxybenzaldehyde in 7% sucrose vs 10% sucrose): 1%
R-index ([3]; 75 ppm p-ethoxybenzaldehyde in 7% sucrose vs 11% sucrose): 0%
R-index ([3]; 100 ppm in water vs 150 ppm cyclamate): 51%
R-index ([3]; 100 ppm in water vs 200 ppm cyclamate): 17%
R-index ([3]; 100 ppm in water vs 250 ppm cyclamate): 5%
R-index ([3]; 100 ppm p-ethoxybenzaldehyde in 1700 ppm cyclamate vs 1700 ppm cyclamate): 87%
R-index ([3]; 100 ppm p-ethoxybenzaldehyde in 1700 ppm cyclamate vs 1900 ppm cyclamate): 80%
R-index ([3]; 100 ppm p-ethoxybenzaldehyde in 1700 ppm cyclamate vs 2100 ppm cyclamate): 50%
R-index ([3]; 100 ppm p-ethoxybenzaldehyde in 1700 ppm cyclamate vs 2300 ppm cyclamate): 22%
R-index ([3]; 100 ppm p-ethoxybenzaldehyde in 1700 ppm cyclamate vs 2500 ppm cyclamate): 17%
R-index ([3]; 600 ppm (A) vs 700 ppm (B) p-ethoxybenzaldehyde in water): 74%
R-index ([3]; 700 ppm (A) vs 800 ppm (B) p-ethoxybenzaldehyde in water): 72%
R-index ([3]; 800 ppm (A) vs 900 ppm (B) p-ethoxybenzaldehyde in water): 67%
R-index ([3]; 900 ppm (A) vs 1000 ppm (B) p-ethoxybenzaldehyde in water): 73%

— patent US8124361B2, “Methods of screening for sweet taste modulators” (Givaudan SA, priority 2006, dated 2012)
